{
  "source": "paper PMC12533218",
  "proteins": {"B1": {"name": "FoxO1: OGT-overexpressing lentivirus (protein)", "parent chain": "MAEAPQVVETDPDFEPLPRQRSCTWPLPRPEFNQSNSTTSSPAPSGGAAANPDAAASLASASAVSTDFMSNLSLLEESEDFARAPGCVAVAAAAAASRGLCGDFQGPEAGCVHPAPPQPPPTGPLSQPPPVPPSAAAAAGPLAGQPRKTSSSRRNAWGNLSYADLITKAIESSAEKRLTLSQIYEWMVKSVPYFKDKGDSNSSAGWKNSIRHNLSLHSKFIRVQNEGTGKSSWWMLNPEGGKSGKSPRRRAASMDNNSKFAKSRGRAAKKKASLQSGQEGPGDSPGSQFSKWPASPGSHSNDDFDNWSTFRPRTSSNASTISGRLSPIMTEQDDLGDGDVHSLVYPPSAAKMASTLPSLSEISNPENMENLLDNLNLLSSPTSLTVSTQSSPGSMMQQTPCYSFAPPNTSLNSPSPNYSKYTYGQSSMSPLPQMPMQTLQDSKSSYGGLNQYNCAPGLLKELLTSDSPPHNDIMSPVDPGVAQPNSRVLGQNVMMGPNSVMPAYGSQASHNKMMNPSSHTHPGHAQQTASVNGRTLPHVVNTMPHTSAMNRLTPVKTPLQVPLSHPMQMSALGSYSSVSSCNGYGRMGVLHQEKLPSDLDGMFIERLDCDMESIIRNDLMDGDTLDFNFDNVLPNQSFPHSVKTTTHSWVSG"}, "B2": {"name": "FoxO1: OGT co-transfection (protein)", "parent chain": "B1 parent chain"}},
  "key": {"[1]": {"experiment": "western blot of FoxO1, ATDC5 cells", "details": "glycan gained; control: control lentivirus"}, "[2]": {"experiment": "HA immunoprecipitation, ubiquitin blot", "details": "glycan gained; control: HA-FoxO1 without OGT"}},
  "data": [
    {"protein": "B1", "values": [
      {"measurement": "expression_or_secretion", "setting": "[1]", "result": "increases"}
    ]},
    {"protein": "B2", "values": [
      {"measurement": "other: ubiquitination", "setting": "[2]", "result": "decreases"}
    ]}
  ]
}
